This is a sample that favours compounds with a hit; in the whole collection about 1.5% have one here.
RAD52 anneal inh: inhibitors of human RAD52 DNA annealing; inhibition, % at 18.7 µM; 0.46% of 360,000 active; P43351; recombinant RAD52 DNA annealing, FRET fluorescence;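 active = every replicate showing at least 50% inhibition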
INS-1E GSIS act: GLuc luminescence reporter in INS-1E cells, primary screen for activators of glucose-dependent secretion of insulin | 0.61% of 370,000 active | activation, % at 16.6 µM | INS-1E GLuc reporter insulin secretion, 2-3 h | AID 743287;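 active = lowest replicate activation of at least 40%, so every replicate reaches that level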;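 also: 0% = median of neutral control wells and 100% = median of IBMX positive control wells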
RAD54 branch: blocks human RAD54 Holliday junction branch migration. Q92698. FAM/BHQ fluorescence. inhibition, % at 10.4 µM. 0.14% of 360,000 active. AID 602329;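 active = mean normalized replicate activity at least 40 and at least half of replicates scoring 40 or more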;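 also: 0% = median of neutral control wells and 100% = median of positive control wells; inhibitors cause a drop in the FAM fluorescence signal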
PglD inh: PglD (C. jejuni) enzyme inhibition. 0.098% of 360,000 active. inhibition, % at 12.5 µM. purified PglD enzyme, DTNB colorimetric CoA detection; in the data active = inhibition above about 16%, passing the limit was not always enough
CASP6 VEID inh: inhibitors of human caspase-6 | 0.53% of 350,000 active | purified caspase-6, Z-VEID-R110 cleavage fluorescence | P55212 | inhibition, % at 12.5 µM;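 active = mean inhibition across replicates at least about 35%, with every replicate also reaching that limit, limit read from the data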;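 also: 0% = median of neutral control wells and 100% = no fluorescence left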
Yeast UUG start: alters start codon recognition fidelity in yeast; S. cerevisiae UUG-firefly luciferase reporter, luminescence/redox ratio; activity score, % at 18.7 µM; actives 0.13% (n = 350,000);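 active means replicate mean at a twofold rise or more, about +100% in these data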;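 further: firefly luciferase made from a UUG start codon reports start codon fidelity; reporter light over untreated wells divided by growth signal over untreated wells; some hits fall short of that in this replicate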
* = called active by the depositor; i = inactive; . = no result.

Letter code – A = RAD52 anneal inh; B = INS-1E GSIS act; C = RAD54 branch; D = PglD inh; E = CASP6 VEID inh; F = Yeast UUG start
O=C(NCC(c1ccco1)N1CCc2ccccc2C1)c1ccc(Cl)cc1 (configuration not stated)
  A: -49; B: -6; C: -7; D: 4; E: 63*; F: 3
Cc1ccc(S(=O)(=O)N(C)C[C@H]2OCCCC[C@@H](C)Oc3ccc(NC(=O)Cc4ccccc4)cc3C(=O)N([C@@H](C)CO)C[C@H]2C)cc1
  A: -9; B: -10; C: -7; D: -5; E: -4; F: -9
c1ccc(Nc2nc(-c3cccs3)cs2)nc1
  A: .; B: .; C: 1; D: -1; E: .; F: -42
CCc1noc(C)c1C(=O)Nc1ccc(S(=O)(=O)N2CCCC(C)C2)cc1 (configuration not stated)
  A: -6; B: -19; C: -4; D: -2; E: 42*; F: 3
CCc1noc(C)c1C(=O)Nc1ccc(C)c(S(=O)(=O)N2CCCCCC2)c1
  A: -10; B: -38; C: .; D: .; E: 2; F: .
O=C1CCc2cc(Br)ccc2O1
  A: -2; B: .; C: -2; D: 13; E: 45*; F: -11
Cc1ccc(S(=O)(=O)NCc2csc(-c3cccs3)n2)cc1
  A: -9; B: 48*; C: .; D: .; E: -1; F: .
CN1C(=O)c2cc(NC(=O)c3cc(F)cc(F)c3)ccc2OC[C@@H]2O[C@H](CC(=O)O)CC[C@H]21
  A: 6; B: 7; C: -5; D: 0; E: -2; F: -2
COc1ccc2noc3c2c1C(=O)c1ccccc1-3
  A: i; B: 4; C: -116; D: -1; E: 46*; F: 7
COc1cccc2c1C(=O)c1ccc3ccccc3c1C2=O
  A: .; B: .; C: 3; D: -7; E: .; F: 7
Oc1ccc(/C=N/Nc2ccc(Cl)nn2)c(O)c1O
  A: -18; B: 11; C: -9; D: 7; E: 48*; F: -47
COc1cccc(-c2nc(CS(=O)CC(=O)NCc3ccc4c(c3)OCO4)c(C)o2)c1 (configuration not stated)
  A: -4; B: 3; C: -4; D: 0; E: 0; F: -11
CCOc1cc2c(cc1OC)C(c1cccc([N+](=O)[O-])c1)NCC2 (configuration not stated)
  A: -9; B: 29; C: .; D: .; E: 42*; F: .
CCOc1cc2c(cc1OCC)C(c1ccc(F)cc1)NCC2 (configuration not stated)
  A: -10; B: -1; C: -1; D: -15; E: 0; F: -8
O=C(COC(=O)c1cccc(OC(F)F)c1)Nc1cccc(S(=O)(=O)N2CCCC2)c1
  A: -9; B: -14; C: 15; D: -2; E: 60*; F: -6
O=C(CNc1ccc(Br)cc1)Nc1cccc(S(=O)(=O)N2CCCC2)c1
  A: 0; B: -8; C: 0; D: -3; E: 1; F: 15
O=C(CNc1cccc(S(=O)(=O)N2CCCC2)c1)Nc1cccc(Br)c1
  A: -41; B: 4; C: 5; D: 2; E: 44*; F: 8
CO[C@@H]1CN(C)C(=O)c2ccc(NC(=O)c3ccccc3F)cc2OC[C@@H](C)N(CC2CC2)C[C@H]1C
  A: -1; B: -12; C: 3; D: -2; E: 0; F: 5
N#Cc1cccc(CS(=O)(=O)c2ccc(Cl)cc2)c1
  A: -6; B: 12; C: 4; D: 1; E: 0; F: -3
O=C(NCCC1CCCCN1S(=O)(=O)c1ccc(F)cc1)C(=O)NCc1cccnc1 (configuration not stated)
  A: -8; B: 50*; C: -1; D: 4; E: 1; F: -28
CC(C)n1c2ccccc2c2cc([N+](=O)[O-])ccc21
  A: -21; B: -3; C: .; D: .; E: 2; F: .
C[n+]1c(-c2ccccc2)cc2c(=Cc3ccccc3)c3ccccc3n21
  A: -2; B: 33; C: .; D: .; E: 53*; F: .
CCOC(=O)c1cc2c(=Cc3ccc(N(C)C)cc3)c3ccccc3n2[n+]1C
  A: 56*; B: -20; C: .; D: .; E: 97*; F: .
Cc1cc2c(=Cc3ccc(N(C)C)cc3)c3ccccc3n2[n+]1C
  A: -65; B: -66; C: .; D: .; E: -4; F: .
C[n+]1c(-c2ccccc2)cc2c(=Cc3ccc([N+](=O)[O-])cc3)c3ccccc3n21
  A: 2; B: 4; C: .; D: .; E: 83*; F: .

Ordered by value in Yeast UUG start (high to low): three from the list above
Compound	RAD52 anneal inh	INS-1E GSIS act	PglD inh	CASP6 VEID inh	Yeast UUG start
O=C(CNc1cccc(S(=O)(=O)N2CCCC2)c1)Nc1cccc(Br)c1	-41	4	2	44*	8
CCOc1cc2c(cc1OCC)C(c1ccc(F)cc1)NCC2 (configuration not stated)	-10	-1	-15	0	-8
O=C1CCc2cc(Br)ccc2O1	-2	.	13	45*	-11

More results follow:
Letter code – A = RAD52 anneal inh; B = INS-1E GSIS act; C = RAD54 branch; D = PglD inh; E = CASP6 VEID inh; F = Yeast UUG start
CN(C)c1ccc(C=c2c3cc(O)ccc3n3c2cc(-c2ccccc2)[n+]3C)cc1
  A: -42; B: -55; C: .; D: .; E: 95*; F: .
COc1ccc(C(=O)COC(=O)CCN2C(=O)[C@@H]3[C@H](C2=O)[C@@H]2C[C@H]3C(Br)C2Br)cc1 (some centres not stated)
  A: .; B: -28; C: 1; D: 1; E: .; F: -6
O=C(Nc1ccccc1)N1C[C@H]2[C@@H](c3ccccc31)[C@H](CO)N2CC1CCCC1
  A: 5; B: -1; C: 5; D: -2; E: 3; F: -4
COc1cccc(CCc2nc3ccccc3c(=O)n2N)c1
  A: 1; B: -15; C: .; D: .; E: -1; F: .
O=C(Nc1ccc(F)cc1)N1CC(=O)N2[C@H](C1)[C@@H](c1ccc(C#Cc3ccccc3)cc1)[C@@H]2CO
  A: .; B: -12; C: .; D: .; E: .; F: .
CCN(Cc1ccccc1)S(=O)(=O)c1ccccc1Br
  A: -9; B: 41*; C: -9; D: 14; E: 0; F: 7
CCN(Cc1cc(OC)c(OC)c(OC)c1)S(=O)(=O)c1ccccc1Br
  A: -6; B: -3; C: .; D: .; E: -1; F: .
CCC(=O)N1CCC1(C)C(=O)Nc1ccccc1 (configuration not stated)
  A: -2; B: .; C: -6; D: 0; E: 3; F: -15
COc1cccc(NS(=O)(=O)c2ccc3c(c2)NC(=O)CC(=O)N3)c1
  A: -3; B: -12; C: -5; D: -3; E: 99*; F: -19
COc1cccc(NS(=O)(=O)c2ccc3c(c2)NC(=O)C(C)C(=O)N3)c1 (configuration not stated)
  A: -2; B: 20; C: -6; D: 0; E: -1; F: -7
O=C(O)c1cc(-c2ccc(/C=C3/SC(=S)N(Cc4ccccc4)C3=O)o2)ccc1Cl
  A: -343; B: -20; C: -59; D: 1; E: 51*; F: -5
CC1=NN(c2ccccc2)C(=O)/C1=C/c1ccc(-c2ccc(C)c(C(=O)O)c2)o1
  A: -19; B: 3; C: .; D: .; E: 4; F: .
CC1(C)OC(=O)C(=Cc2ccc(-c3ccc(Cl)c(C(=O)O)c3)o2)C(=O)O1
  A: -98; B: 8; C: .; D: .; E: 58*; F: .
O=C(O)c1ccc(-c2ccc(/C=c3/sc4nc5ccccc5n4c3=O)o2)cc1Cl
  A: -155; B: 9; C: .; D: .; E: 58*; F: .
CC1=NN(c2ccc(Cl)c(C(=O)O)c2)C(=O)/C1=C\c1ccc(-c2ccc(C(=O)O)cc2)o1
  A: -40; B: 1; C: .; D: .; E: 54*; F: .
O=C(c1ccc(=O)n(Cc2ccccc2)n1)N1CCN(C/C=C/c2ccccc2)CC1
  A: .; B: .; C: -5; D: -1; E: .; F: -16
COc1cccc(S(=O)(=O)N2CCCCN3[C@@H](CO)[C@H](c4ccc(-c5cncnc5)cc4)[C@@H]3C2)c1
  A: -14; B: -12; C: -4; D: -1; E: -1; F: -15
CC1=CC(c2ccccc2)n2nc(NC(=O)CCCC(=O)O)nc2N1 (configuration not stated)
  A: -6; B: 8; C: -3; D: -17; E: 4; F: -17
CC1=CC(c2ccccc2)n2nc(NC(=O)CCC(=O)O)nc2N1 (configuration not stated)
  A: -4; B: 65*; C: -9; D: 7; E: 3; F: -32
CCCCCCCCNC(=O)C(CCC(=O)OCc1ccccc1)NC(C)=O (configuration not stated)
  A: -7; B: -50; C: 0; D: 2; E: -2; F: 8
CCN(CC)C(=O)c1ccccc1NS(=O)(=O)c1ccc(C)cc1
  A: .; B: 43*; C: 8; D: -2; E: .; F: 13
CCN(CC)C(=O)c1ccccc1NS(=O)(=O)c1cccs1
  A: -11; B: 18; C: 5; D: -3; E: -1; F: -28
